{"sequences": {"note": "By UniProt entry, the sequences of proteins in these tests, tags left out.", "UniProt P60520, whole entry": "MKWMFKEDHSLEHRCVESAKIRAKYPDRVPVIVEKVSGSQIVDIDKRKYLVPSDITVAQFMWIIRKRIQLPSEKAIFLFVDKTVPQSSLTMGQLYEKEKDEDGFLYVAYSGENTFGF", "UniProt Q9H0R8, whole entry": "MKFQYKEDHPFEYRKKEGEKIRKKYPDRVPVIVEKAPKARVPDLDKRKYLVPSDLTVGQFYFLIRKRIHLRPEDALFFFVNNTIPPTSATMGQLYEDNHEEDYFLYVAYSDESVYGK"}, "source": "paper PMC6499816", "about": "“Molecular determinants regulating selective binding of autophagy adapters and receptors to ATG8 proteins” (Nature Communications, 2019)", "key": {"LC3B E62Q": {"target": "T1, LC3B E62Q (Homo sapiens, UniProt Q9GZQ8, E62Q)", "T1 construct": "GST (followed by 3C protease site) (N); made in house", "assay": "BLI, LIR peptide binding to LC3B E62Q", "conditions": "best-fit value of BLI response; ATG13 WT LIR peptide; n=2", "experimental": "(§1) For recombinant protein expression in bacteria, a modified plasmid of pGEX-6P2 (GE Healthcare) (referred to as pAL) containing an N-terminal […] followed by a 3C protease cleavage site was used.\n(§2) The biosensor tip surface immobilized with a ligand is incubated with an analyte in solution, resulting in an increase in optical thickness at the biosensor tip and a wavelength shift, which is a direct measure of the change in thickness. […] Ligand-loaded SA biosensors were then incubated with different concentrations of ATG8. All binding experiments were performed in solid-black 96-well plates containing 200 μl of solution (25 mM Tris, pH 7.5, 150 mM NaCl, 0.5 mM TCEP, 0.1% Tween-20, 1 mg/ml bovine serum albumin (BSA)) in each well at 25 °C with an agitation speed of 1000 rpm. Each measurement was repeated two to five times.\n(§3) Peptides were synthesized using FMOC (fluorenylmethoxycarbonyl) solid-phase peptide chemistry by the Francis Crick Peptide Chemistry Technology Platform and are listed in Supplementary Table 2."}, "LC3A": {"target": "T2, LC3A (Homo sapiens, UniProt Q9H492)", "T2 construct": "GST (followed by 3C protease site) (N); made in house; host or cells: bacteria (E. coli BL21 (DE3) pLysS is stated for the GST-ATG8 proteins of the overlay assay)", "assay": "Bio-layer interferometry (BLI), LIR peptide binding to LC3A", "conditions": "non linear regression, n=2 independent experiments", "experimental": "as §1\n(§4) Expression was induced by the addition of 0.5 mM IPTG at OD600 = 0.6 and cells were incubated at 25 °C overnight or at 37 °C for 5 h. Harvested cells were lysed in 50 mM Tris-HCl, pH 8.0, 500 mM NaCl, 0.1% Triton X-100, 0.4 mM 4-(2-aminoethyl)-benzenesulfonylfluoride HCl (AEBSF), and 15 µg/ml benzamidine. Fusion protein was batch adsorbed onto Glutathione-Sepharose 4B beads (GE Healthcare). After five washes with wash buffer (50 mM Tris, pH 8.0, 250 mM NaCl, 0.4 mM AEBSF, and 15 µg/ml benzamidine), fusion proteins were eluted in 50 mM Tris, pH 8.0, 2 mM L-glutathione reduced, 0.4 mM AEBSF, and 15 µg/ml benzamidine.\nas §2, §3"}, "GABARAPL2": {"target": "T3, GABARAPL2 (Homo sapiens, UniProt P60520)", "T3 construct": "GST (followed by 3C protease site) (N); made in house; host or cells: bacteria (E. coli BL21 (DE3) pLysS is stated for the GST-ATG8 proteins of the overlay assay)", "assay": "BLI, LIR peptide binding to GABARAPL2", "conditions": "non linear regression, n=2 independent experiments", "experimental": "as §1, §4, §2, §3"}, "GABARAPL1": {"target": "T4, GABARAPL1 (Homo sapiens, UniProt Q9H0R8)", "T4 construct": "GST (followed by 3C protease site) (N); made in house; host or cells: bacteria (E. coli BL21 (DE3) pLysS is stated for the GST-ATG8 proteins of the overlay assay)", "assay": "BLI, LIR peptide binding to GABARAPL1", "conditions": "non linear regression, n=2 independent experiments", "experimental": "as §1, §4, §2, §3"}, "LC3B Q26K/H27Y/E62Q": {"target": "T5, LC3B Q26K/H27Y/E62Q (Homo sapiens, UniProt Q9GZQ8, E62Q/H27Y/Q26K)", "T5 construct": "GST (followed by 3C protease site) (N); made in house", "assay": "BLI, LIR peptide binding to LC3B Q26K/H27Y/E62Q", "conditions": "best-fit value of BLI response; ATG13 WT LIR peptide; n=2", "experimental": "as §1, §2, §3"}, "[1]": {"target": "T6, GABARAP K24Q/Y25H/Q59E/F60L (Homo sapiens, UniProt O95166, F60L/K24Q/Q59E/Y25H)", "T6 construct": "GST (followed by 3C protease site) (N); made in house", "assay": "BLI, LIR peptide binding to GABARAP K24Q/Y25H/Q59E/F60L", "conditions": "best-fit value of BLI response; ATG13 WT LIR peptide; n=2", "experimental": "as §1, §2, §3"}, "GABARAP": {"target": "T7, GABARAP (Homo sapiens, UniProt O95166)", "T7 construct": "GST (followed by 3C protease site) (N); made in house; host or cells: bacteria (E. coli BL21 (DE3) pLysS is stated for the GST-ATG8 proteins of the overlay assay)", "assay": "BLI, LIR peptide binding to GABARAP", "conditions": "non linear regression, n=2 independent experiments", "experimental": "as §1, §4, §2, §3"}, "LC3B": {"target": "T8, LC3B (Homo sapiens, UniProt Q9GZQ8)", "T8 construct": "GST (followed by 3C protease site) (N); made in house; host or cells: bacteria (E. coli BL21 (DE3) pLysS is stated for the GST-ATG8 proteins of the overlay assay)", "assay": "BLI, LIR peptide binding to LC3B", "conditions": "non linear regression, n=2 independent experiments", "experimental": "as §1, §4, §2, §3"}}}
{"smiles": "CC[C@H](C)[C@H](NC(=O)[C@H](CCSC)NC(=O)[C@@H](NC(=O)[C@H](Cc1ccccc1)NC(=O)[C@H](CC(=O)O)NC(=O)[C@H](CC(=O)O)NC(=O)[C@H](Cc1c[nH]cn1)NC(=O)[C@@H](NC(=O)[C@H](CC(N)=O)NC(=O)CNC(=O)[C@H](CO)NC(=O)[C@@H](N)CO)[C@@H](C)O)C(C)C)C(=O)N[C@@H](CC(=O)O)C(=O)N[C@@H](Cc1ccccc1)C(=O)N[C@@H](CCCCN)C(=O)N1CCC[C@H]1C(=O)N[C@@H](C)C(=O)N[C@@H](Cc1ccccc1)C(=O)N[C@@H](CO)C(=O)N[C@@H](CCCCN)C(=O)N[C@@H](CC(=O)O)C(=O)O", "note": "[ATG13 WT]", "values": [{"measurement": "Rmax", "setting": "LC3B E62Q", "result": 1.801}, {"measurement": "Rmax (best-fit value, theoretical response maxium)", "setting": "LC3A", "result": 2.009}, {"measurement": "Rmax (best-fit value, theoretical response maxium)", "setting": "GABARAPL2", "result": 2.445}, {"measurement": "Rmax (best-fit value, theoretical response maxium)", "setting": "GABARAPL1", "result": 2.913}, {"measurement": "Rmax", "setting": "LC3B Q26K/H27Y/E62Q", "result": 2.477}, {"measurement": "Rmax", "setting": "[1]", "result": 1.459}, {"measurement": "Rmax (best-fit value, theoretical response maxium)", "setting": "GABARAP", "result": 2.77}, {"measurement": "Rmax (best-fit value, theoretical response maxium)", "setting": "LC3B", "result": 0.9081}]}
